Experimental data: patent publication US20030139609A1, “Aziridinyl quinone antitumor agents based on indoles and cyclopent[b]indoles” (priority 2001, published 2003)

Tested on: B16 melanoma
Format: in vivo
Conditions: 2, 3 or 5 mg/kg/day
Text: Shown in Tables 6 and 7 are B16 melanoma syngraft assays {Griswold, D. P., Consideration of the Subcutaneously Implanted B16 Melanoma as a Screening Model for Potential Anticancer Agents, Cancer Chemother Reports, 1972, 3, 315-324} of some members of Series 1-9, as well as related compounds previously reported from this laboratory. {Xing, C. G., Wu, P., Skibo, E. B., and Dorr, R. T., Design of cancer-specific antitumor agents based on aziridlinylcyclopent[b]indoloquinones, J. Med. Chem., 2000, 43, 457-466}. Each agent was evaluated at three doses in C57/bl mice: 2, 3 or 5 mg/kg/day, on days 1, 5, and 9 after subcutaneous tumor implantation of 10^5 cells in the front flank on day 0. “Toxic” means that there was early lethality, or ≧50% lethality prior to any deaths in the control group. The treated over control values (T/C) were measured at day 25 of the study. A T/C value <40% is considered active.
In vivo Evaluation. The B-16 melanoma in C57/bl mice syngraft model was employed to determine in vivo activity. {Griswold, D. P., Consideration of the Subcutaneously Implanted B16 Melanoma as a Screening Model for Potential Anticancer Agents, Cancer Chemother Reports, 1972, 3, 315-324}. Each agent was evaluated at three doses: 2, 3 or 5 mg/kg/day, on days 1, 5, and 9 after subcutaneous tumor implantation of 10^5 cells in the front flank on day 0. “Toxic” means that there was early lethality, or ≧50% lethality prior to any deaths in the control group. The treated over control values (T/C) were measured at day 25 of the study. A T/C value<40% is considered active. NA means that the compound was not active. The control was obtained with drug-free animals.

| Structure (SMILES) | in vivo antitumor activity (in words) | in vivo toxicity (in words) |
| --- | --- | --- |
| CC1=C(N2CC2)C(=O)c2c([nH]c(C)c2C)C1=O [reference compound] | substantial antitumor activity | toxicity only seen at the highest dose |
| CC(=O)OC1CCc2c1[nH]c1c2C(=O)C=C(N2CC2)C1=O (stereo not drawn) [Compound 3b, 3-Acetoxy-6-aziridinyl-1,2,3,4-tetrahydrocyclopent[b]indole-5,8-dione] | – | toxic |
